In publication PMC5404560, “Towards Selective Mycobacterial ClpP1P2 Inhibitors with Reduced Activity against the Human Proteasome” (Antimicrobial Agents and Chemotherapy, 2017):

Legend:
[1] = biological target: T1, Caspase 3 (Homo sapiens, UniProt P42574); test: Protease panel: Caspase 3; format: biochemical; conditions: supplement panel table, test and control compound
T1 construct: Reaction Biology Corporation (contract testing)
T1 sequence (P42574 29-277): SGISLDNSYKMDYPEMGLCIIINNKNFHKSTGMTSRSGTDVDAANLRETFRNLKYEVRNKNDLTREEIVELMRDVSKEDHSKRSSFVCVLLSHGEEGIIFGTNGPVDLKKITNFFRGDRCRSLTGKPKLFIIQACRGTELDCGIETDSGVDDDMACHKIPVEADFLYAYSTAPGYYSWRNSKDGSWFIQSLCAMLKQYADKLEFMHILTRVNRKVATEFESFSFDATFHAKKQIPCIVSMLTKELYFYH

[2] = biological target: T2, Caspase 6 (Homo sapiens, UniProt P55212); test: Protease panel: Caspase 6; format: biochemical; conditions: supplement panel table, test and control compound
T2 construct: Reaction Biology Corporation (contract testing)
T2 sequence (P55212 24-293): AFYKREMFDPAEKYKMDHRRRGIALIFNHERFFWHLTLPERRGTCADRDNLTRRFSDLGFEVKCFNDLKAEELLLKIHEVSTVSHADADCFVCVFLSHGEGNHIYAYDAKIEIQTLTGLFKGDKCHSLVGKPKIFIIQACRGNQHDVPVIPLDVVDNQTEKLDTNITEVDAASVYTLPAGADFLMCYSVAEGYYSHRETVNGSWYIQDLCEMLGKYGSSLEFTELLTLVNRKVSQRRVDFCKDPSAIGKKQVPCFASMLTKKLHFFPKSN

CC(=O)N[C@@H](CC(=O)O)C(=O)N[C@@H](CCC(=O)O)C(=O)N[C@H](C(=O)N[C@H](C=O)CC(=O)O)C(C)C [DEVD-CHO] gave an IC50 [1] of 0.000913 µM and an IC50 [2] of 0.00904 µM.
